Reference: PubChem BioAssay AID1508610 (The Scripps Research Institute Molecular Screening Center, 2020)
The source made the active and inactive calls. How the calls were made is not given here.

Chains of the proteins cited; added tags and fusions are not shown.
UniProt Q8TDV0, whole entry: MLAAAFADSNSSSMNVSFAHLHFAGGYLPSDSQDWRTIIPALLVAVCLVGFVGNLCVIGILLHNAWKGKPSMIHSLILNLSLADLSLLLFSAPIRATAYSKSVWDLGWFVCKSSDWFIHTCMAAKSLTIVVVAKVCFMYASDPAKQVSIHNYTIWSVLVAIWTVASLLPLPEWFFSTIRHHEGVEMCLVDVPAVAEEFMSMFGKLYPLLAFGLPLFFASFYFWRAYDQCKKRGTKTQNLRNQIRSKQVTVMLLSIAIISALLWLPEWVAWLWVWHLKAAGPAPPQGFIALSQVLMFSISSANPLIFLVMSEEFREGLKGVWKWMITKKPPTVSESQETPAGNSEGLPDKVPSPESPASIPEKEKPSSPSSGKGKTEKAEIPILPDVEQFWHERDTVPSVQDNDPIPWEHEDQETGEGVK

Target: G-protein coupled receptor 151 (Homo sapiens) (UniProt Q8TDV0)
Assay: GPR151 activator potency, dose response, cell-based (AID 1508610)
Conditions: cell-based GPR151 activation reporter

## CCCN1CCC(Nc2ccc(Cl)cc2)CC1
  EC50: inactive: > 28 µM
